The species named for the test is Rattus norvegicus. The test can be described thus: Inhibition of VGLUT in rat brain assessed as [3H]-L-Glu uptake into synaptic vesicles at 250 uM relative to control. Format: tissue-based.

The record followed here is ChEMBL document CHEMBL3112560 (Bioorg Med Chem Lett, 2014).

By inhibition is commonly meant the share of the control response that was lost under treatment.

In the case of `CC(=O)[C@H]1CC[C@H]2[C@@H]3CC[C@@H]4C[C@H](O)CC[C@]4(C)[C@H]3CC[C@]12C`, the inhibition was found to be 100%.
